Reference: ChEMBL document CHEMBL4627396 (J Med Chem, 2020)
Converted amounts (≈) assume the structure as drawn. One block for each compound: values may come before it.

Amino acid sequences for entries named in this document (tags omitted). A change or cut given only in a name is not applied to a line headed by its entry.
UniProt P53355: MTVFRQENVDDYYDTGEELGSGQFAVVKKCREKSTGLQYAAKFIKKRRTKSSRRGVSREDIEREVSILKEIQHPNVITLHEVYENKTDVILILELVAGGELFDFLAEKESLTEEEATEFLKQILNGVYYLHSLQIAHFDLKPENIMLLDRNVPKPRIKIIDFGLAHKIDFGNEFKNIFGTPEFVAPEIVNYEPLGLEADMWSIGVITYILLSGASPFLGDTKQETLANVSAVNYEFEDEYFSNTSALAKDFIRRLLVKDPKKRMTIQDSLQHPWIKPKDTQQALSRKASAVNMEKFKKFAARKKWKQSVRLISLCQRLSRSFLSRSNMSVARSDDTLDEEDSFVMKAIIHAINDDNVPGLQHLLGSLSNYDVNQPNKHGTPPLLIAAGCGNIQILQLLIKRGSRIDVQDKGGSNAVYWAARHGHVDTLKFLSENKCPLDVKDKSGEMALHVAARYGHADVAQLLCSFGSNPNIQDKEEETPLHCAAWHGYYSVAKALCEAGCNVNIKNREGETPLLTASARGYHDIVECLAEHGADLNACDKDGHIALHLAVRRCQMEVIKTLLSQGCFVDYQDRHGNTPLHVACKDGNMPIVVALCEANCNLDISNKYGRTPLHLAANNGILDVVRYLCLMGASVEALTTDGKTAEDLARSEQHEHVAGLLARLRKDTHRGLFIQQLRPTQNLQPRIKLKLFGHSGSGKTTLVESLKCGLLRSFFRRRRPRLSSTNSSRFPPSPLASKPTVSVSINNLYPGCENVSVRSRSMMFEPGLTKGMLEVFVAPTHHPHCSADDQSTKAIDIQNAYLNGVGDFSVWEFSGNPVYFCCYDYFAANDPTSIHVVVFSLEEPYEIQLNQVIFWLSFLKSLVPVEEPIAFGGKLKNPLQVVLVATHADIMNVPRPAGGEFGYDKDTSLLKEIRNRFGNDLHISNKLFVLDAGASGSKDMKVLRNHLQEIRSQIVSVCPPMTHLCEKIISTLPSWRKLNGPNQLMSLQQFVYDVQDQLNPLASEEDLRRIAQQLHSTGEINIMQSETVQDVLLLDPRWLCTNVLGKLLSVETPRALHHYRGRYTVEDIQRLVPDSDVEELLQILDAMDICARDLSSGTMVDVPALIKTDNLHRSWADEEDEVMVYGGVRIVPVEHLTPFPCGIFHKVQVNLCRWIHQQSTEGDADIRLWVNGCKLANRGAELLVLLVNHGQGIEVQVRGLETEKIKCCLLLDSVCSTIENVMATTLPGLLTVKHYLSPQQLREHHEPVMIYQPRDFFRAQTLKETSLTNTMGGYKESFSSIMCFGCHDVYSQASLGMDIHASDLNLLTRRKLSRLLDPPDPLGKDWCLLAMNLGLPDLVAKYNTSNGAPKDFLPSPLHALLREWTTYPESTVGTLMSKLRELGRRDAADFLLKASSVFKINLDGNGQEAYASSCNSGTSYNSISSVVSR
UniProt P00519, whole entry: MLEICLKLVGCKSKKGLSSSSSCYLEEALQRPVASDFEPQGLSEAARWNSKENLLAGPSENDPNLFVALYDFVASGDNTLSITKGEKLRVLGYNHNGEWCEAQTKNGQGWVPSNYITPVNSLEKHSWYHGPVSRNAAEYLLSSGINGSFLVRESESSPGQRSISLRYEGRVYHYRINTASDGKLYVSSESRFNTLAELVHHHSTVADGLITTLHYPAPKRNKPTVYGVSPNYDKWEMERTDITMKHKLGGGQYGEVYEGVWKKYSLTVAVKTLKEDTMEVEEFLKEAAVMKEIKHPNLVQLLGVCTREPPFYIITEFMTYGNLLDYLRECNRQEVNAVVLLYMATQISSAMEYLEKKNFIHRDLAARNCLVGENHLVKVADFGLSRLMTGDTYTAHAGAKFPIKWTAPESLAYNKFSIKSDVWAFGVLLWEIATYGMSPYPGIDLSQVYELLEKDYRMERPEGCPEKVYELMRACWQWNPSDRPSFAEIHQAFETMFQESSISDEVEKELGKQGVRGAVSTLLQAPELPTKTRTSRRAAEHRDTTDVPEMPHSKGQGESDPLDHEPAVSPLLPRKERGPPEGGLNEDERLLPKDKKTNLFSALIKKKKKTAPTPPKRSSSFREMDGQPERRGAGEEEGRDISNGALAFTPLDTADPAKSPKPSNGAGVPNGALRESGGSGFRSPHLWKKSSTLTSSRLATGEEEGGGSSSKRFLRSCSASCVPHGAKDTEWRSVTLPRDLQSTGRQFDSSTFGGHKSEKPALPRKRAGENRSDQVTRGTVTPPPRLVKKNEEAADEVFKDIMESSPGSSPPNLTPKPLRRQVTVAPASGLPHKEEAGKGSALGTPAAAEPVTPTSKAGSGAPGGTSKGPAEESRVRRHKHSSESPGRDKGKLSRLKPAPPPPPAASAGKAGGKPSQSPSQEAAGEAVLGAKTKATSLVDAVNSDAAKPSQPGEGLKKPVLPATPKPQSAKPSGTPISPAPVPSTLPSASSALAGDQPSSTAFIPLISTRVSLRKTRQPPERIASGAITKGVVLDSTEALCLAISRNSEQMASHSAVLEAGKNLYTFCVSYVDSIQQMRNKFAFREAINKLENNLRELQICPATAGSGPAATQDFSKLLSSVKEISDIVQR
UniProt P11309, whole entry, looked up: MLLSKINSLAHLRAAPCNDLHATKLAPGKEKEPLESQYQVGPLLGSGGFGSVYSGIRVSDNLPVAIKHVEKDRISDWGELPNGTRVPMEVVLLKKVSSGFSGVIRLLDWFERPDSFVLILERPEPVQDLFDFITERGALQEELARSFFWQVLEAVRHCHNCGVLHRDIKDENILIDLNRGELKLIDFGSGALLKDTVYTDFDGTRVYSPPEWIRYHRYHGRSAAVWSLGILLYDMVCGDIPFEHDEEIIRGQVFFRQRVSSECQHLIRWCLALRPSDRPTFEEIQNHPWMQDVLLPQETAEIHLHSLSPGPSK
UniProt O60331: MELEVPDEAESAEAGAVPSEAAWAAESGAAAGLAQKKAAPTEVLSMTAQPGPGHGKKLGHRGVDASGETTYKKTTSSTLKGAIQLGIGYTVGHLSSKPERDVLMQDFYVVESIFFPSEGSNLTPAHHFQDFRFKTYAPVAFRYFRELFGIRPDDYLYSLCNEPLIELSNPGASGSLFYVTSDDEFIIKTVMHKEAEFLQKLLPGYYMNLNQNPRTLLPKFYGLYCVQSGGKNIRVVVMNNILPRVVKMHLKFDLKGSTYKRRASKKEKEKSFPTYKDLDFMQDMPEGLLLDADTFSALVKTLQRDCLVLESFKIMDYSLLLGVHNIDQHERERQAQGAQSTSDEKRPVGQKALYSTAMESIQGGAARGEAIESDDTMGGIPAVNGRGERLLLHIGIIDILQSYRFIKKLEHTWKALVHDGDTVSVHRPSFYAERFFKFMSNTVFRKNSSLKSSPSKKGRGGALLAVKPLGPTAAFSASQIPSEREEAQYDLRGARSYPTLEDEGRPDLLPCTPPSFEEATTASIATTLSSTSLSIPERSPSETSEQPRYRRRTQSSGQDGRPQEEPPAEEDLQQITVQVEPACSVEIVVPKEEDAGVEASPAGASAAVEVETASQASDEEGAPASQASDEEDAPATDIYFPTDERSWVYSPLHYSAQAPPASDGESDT
UniProt Q16584: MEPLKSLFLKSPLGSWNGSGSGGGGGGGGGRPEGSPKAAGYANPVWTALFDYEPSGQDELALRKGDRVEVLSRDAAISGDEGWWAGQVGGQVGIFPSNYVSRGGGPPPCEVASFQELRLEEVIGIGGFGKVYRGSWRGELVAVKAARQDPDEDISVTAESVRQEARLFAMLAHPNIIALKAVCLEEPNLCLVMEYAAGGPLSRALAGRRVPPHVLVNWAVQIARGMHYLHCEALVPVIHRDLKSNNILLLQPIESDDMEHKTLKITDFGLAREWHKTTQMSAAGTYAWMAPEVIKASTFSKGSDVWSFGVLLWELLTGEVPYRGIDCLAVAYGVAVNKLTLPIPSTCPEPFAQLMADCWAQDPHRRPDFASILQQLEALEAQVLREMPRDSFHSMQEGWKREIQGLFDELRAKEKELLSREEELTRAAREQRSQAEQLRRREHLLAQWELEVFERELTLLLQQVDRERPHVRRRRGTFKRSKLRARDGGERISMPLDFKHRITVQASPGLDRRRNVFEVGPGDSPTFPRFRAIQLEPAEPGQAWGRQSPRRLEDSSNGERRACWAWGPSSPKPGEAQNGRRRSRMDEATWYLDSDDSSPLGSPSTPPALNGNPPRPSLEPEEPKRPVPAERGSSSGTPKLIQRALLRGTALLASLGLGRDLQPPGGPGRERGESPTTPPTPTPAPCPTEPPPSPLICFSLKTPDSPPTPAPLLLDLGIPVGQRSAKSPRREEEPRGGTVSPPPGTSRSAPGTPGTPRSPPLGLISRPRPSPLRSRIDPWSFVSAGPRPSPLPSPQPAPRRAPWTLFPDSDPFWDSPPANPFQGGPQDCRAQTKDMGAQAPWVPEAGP
UniProt P11712, whole entry: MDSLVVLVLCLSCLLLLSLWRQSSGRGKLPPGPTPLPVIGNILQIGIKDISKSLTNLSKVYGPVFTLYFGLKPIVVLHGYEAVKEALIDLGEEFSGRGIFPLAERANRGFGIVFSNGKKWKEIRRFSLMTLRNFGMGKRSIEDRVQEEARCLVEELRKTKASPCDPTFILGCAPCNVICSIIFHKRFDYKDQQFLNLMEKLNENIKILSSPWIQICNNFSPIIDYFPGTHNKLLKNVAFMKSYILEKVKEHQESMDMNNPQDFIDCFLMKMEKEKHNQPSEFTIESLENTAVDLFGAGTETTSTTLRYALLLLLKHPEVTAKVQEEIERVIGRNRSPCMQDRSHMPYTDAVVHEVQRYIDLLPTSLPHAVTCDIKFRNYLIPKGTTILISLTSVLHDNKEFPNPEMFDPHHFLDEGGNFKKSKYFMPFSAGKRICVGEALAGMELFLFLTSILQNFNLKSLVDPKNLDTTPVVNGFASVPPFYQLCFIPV
UniProt P33261, whole entry: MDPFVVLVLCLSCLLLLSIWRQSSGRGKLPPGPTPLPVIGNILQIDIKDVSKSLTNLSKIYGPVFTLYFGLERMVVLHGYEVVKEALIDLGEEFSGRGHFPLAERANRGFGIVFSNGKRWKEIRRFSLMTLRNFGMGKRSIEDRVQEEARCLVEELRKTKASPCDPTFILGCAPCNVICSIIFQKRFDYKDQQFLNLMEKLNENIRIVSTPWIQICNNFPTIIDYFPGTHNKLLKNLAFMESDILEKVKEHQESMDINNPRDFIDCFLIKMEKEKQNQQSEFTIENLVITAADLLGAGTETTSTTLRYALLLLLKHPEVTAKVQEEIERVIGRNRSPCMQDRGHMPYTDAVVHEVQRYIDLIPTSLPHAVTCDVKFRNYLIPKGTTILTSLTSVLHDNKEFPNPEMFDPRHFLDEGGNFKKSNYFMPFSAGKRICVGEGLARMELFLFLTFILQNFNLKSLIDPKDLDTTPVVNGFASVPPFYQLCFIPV
UniProt Q12809: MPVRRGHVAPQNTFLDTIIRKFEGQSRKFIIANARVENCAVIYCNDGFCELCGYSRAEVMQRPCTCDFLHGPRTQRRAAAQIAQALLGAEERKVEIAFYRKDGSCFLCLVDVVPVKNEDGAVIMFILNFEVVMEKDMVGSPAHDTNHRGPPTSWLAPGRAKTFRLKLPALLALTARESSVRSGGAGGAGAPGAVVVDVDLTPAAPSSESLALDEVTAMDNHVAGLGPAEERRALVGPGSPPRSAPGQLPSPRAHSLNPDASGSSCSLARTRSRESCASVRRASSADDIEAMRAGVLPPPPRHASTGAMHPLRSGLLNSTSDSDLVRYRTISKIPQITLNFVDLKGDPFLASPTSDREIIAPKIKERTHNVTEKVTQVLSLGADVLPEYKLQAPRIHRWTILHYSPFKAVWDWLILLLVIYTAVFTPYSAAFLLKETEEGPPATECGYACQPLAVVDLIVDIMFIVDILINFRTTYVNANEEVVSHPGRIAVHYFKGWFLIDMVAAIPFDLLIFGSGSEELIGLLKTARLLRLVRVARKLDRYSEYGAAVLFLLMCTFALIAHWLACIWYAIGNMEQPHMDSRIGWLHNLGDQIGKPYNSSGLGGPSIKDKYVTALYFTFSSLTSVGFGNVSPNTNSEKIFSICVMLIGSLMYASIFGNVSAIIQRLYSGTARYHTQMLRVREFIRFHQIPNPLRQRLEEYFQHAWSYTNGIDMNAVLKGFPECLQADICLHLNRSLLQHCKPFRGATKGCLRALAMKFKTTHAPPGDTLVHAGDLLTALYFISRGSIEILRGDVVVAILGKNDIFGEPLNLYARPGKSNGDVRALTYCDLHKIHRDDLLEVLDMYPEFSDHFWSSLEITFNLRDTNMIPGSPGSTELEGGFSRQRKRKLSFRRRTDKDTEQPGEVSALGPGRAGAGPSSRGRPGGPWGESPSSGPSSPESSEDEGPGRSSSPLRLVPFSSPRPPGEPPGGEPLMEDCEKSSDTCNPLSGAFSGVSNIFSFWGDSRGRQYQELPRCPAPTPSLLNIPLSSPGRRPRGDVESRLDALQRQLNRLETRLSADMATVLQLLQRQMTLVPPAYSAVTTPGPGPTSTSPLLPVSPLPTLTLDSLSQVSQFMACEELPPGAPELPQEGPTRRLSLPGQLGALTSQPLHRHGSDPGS

Legend:
[1] = target: Death-associated protein kinase 1 (Homo sapiens) (UniProt P53355); test: Binding affinity to DAPK1 (unknown origin) assessed as change in melting temperature at 10 uM by SYPRO Orange dye based fluorescence assay
[2] = target: Casein kinase II subunit alpha (Homo sapiens) (UniProt P68400); test: Binding affinity to CK2a (unknown origin) assessed as change in melting temperature at 10 uM by SYPRO Orange dye based fluorescence assay
[3] = target: Tyrosine-protein kinase ABL1 (Homo sapiens) (UniProt P00519); test: Binding affinity to ABL (unknown origin) assessed as change in melting temperature at 10 uM by SYPRO Orange dye based fluorescence assay
[4] = target: Serine/threonine-protein kinase pim-1 (Homo sapiens) (UniProt P11309); test: Binding affinity to PIM1 (unknown origin) assessed as change in melting temperature at 10 uM by SYPRO Orange dye based fluorescence assay
[5] = target: T1, Dual specificity mitogen-activated protein kinase kinase 5 (Homo sapiens, UniProt Q13163)
T1 sequence (Q13163 whole entry): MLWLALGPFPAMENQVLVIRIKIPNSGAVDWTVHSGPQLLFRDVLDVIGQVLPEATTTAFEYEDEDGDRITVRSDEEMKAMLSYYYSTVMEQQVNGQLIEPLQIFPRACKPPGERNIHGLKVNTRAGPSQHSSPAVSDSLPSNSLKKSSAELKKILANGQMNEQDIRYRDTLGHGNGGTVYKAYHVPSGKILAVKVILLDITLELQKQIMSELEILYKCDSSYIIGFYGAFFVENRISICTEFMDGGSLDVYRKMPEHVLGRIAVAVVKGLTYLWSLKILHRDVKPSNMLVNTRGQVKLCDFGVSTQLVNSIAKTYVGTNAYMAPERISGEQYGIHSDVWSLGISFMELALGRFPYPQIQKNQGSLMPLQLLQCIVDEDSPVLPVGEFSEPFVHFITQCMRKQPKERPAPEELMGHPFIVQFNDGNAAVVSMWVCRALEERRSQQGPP

[6] = target: Phosphatidylinositol 4-phosphate 5-kinase type-1 gamma (Homo sapiens, UniProt O60331)
[7] = target: Mitogen-activated protein kinase kinase kinase 11 (Homo sapiens, UniProt Q16584)
[8] = target: Calcium/calmodulin-dependent protein kinase type 1 (Homo sapiens, UniProt Q14012)
[9] = target: Cytochrome P450 2C9 (Homo sapiens, UniProt P11712)
[10] = target: Cytochrome P450 2C19 (Homo sapiens, UniProt P33261)
[11] = target: Voltage-gated inwardly rectifying potassium channel KCNH2 (Homo sapiens, UniProt Q12809)
[12] = in vivo; details: CD-1, mouse, iv, 2 mg/kg
[13] = in vivo; details: CD-1, mouse, iv, 2 mg/kg; remark: listed apart in the source
[14] = in vivo; details: CD-1, mouse, iv, 2 mg/kg; remark: listed apart in the source
[15] = in vivo; details: CD-1, mouse, iv, 2 mg/kg; remark: listed apart in the source
[16] = in vivo; details: CD-1, mouse, iv, 2 mg/kg; remark: listed apart in the source
[17] = in vivo; details: CD-1, mouse, po, 10 mg/kg
[18] = in vivo; details: CD-1, mouse, po, 10 mg/kg; remark: listed apart in the source
[19] = in vivo; details: CD-1, mouse, po, 10 mg/kg; remark: listed apart in the source
[20] = in vivo; details: CD-1, mouse, po, 10 mg/kg; remark: listed apart in the source
[21] = in vivo; details: CD-1, mouse, po, 25 mg/kg
[22] = in vivo; details: CD-1, mouse, po, 25 mg/kg; remark: listed apart in the source
[23] = in vivo; details: CD-1, mouse, po, 25 mg/kg; remark: listed apart in the source
[24] = in vivo; details: CD-1, mouse, po, 25 mg/kg; remark: listed apart in the source
[25] = in vivo; details: CD-1, mouse, po, 50 mg/kg
[26] = in vivo; details: CD-1, mouse, po, 50 mg/kg; remark: listed apart in the source
[27] = in vivo; details: CD-1, mouse, po, 50 mg/kg; remark: listed apart in the source
[28] = in vivo; details: CD-1, mouse, po, 100 mg/kg
[29] = in vivo; details: CD-1, mouse, po, 100 mg/kg; remark: listed apart in the source
[30] = in vivo; details: CD-1, mouse, po, 100 mg/kg; remark: listed apart in the source
[31] = in vivo; details: CD-1, mouse, po, 200 mg/kg
[32] = in vivo; details: CD-1, mouse, po, 200 mg/kg; remark: listed apart in the source
[33] = in vivo; details: CD-1, mouse, po, 200 mg/kg; remark: listed apart in the source
[34] = in vivo; details: CD-1, mouse, po, 200 mg/kg; remark: listed apart in the source
[35] = in vivo; details: Crl:CD Sprague-Dawley, rat, po, 7 mg/kg
[36] = in vivo; details: Crl:CD Sprague-Dawley, rat, po, 7 mg/kg; remark: listed apart in the source
[37] = in vivo; details: Crl:CD Sprague-Dawley, rat, po, 7 mg/kg; remark: listed apart in the source
[38] = in vivo; details: Crl:CD Sprague-Dawley, rat, po, 7 mg/kg; remark: listed apart in the source
[39] = physchem
[40] = target: Tyrosine-protein kinase SYK (Homo sapiens, UniProt P43405); details: 10 uM

ΔTm [2]: 4.05 °C
ΔTm [3]: 5.95 °C
SMILES: CC(C)c1cc(Nc2nc(N3CCC[C@H](N)C3)ncc2C(N)=O)cc(C(C)C)c1
ΔTm [1]: 4.65 °C

SMILES: CC(C)(C#N)c1cc(Nc2nc(N3CCC[C@H](N)C3)ncc2C(N)=O)cc(C(C)(C)C#N)c1
ΔTm [1]: 3.46 °C
ΔTm [2]: 0.56 °C
ΔTm [3]: 0.27 °C
ΔTm [4]: 0.81 °C
IC50 [5]: 7.68 µM
IC50 [6]: 7.12 µM
IC50 [7]: 7.86 µM
IC50 [8]: 0.002 µM
IC50 [9]: 6 µM
IC50 [10]: 1 µM
IC50 [11]: 7.1 µM
clearance [12]: 88 mL/min/kg
AUC(0-inf) [13]: 387 ng·h/mL
Cmax [14]: 747 ng/mL
half-life [15]: 2.3 h
Vd [16]: 4.9 L/kg
bioavailability [17]: 41%
AUC(0-inf) [18]: 790 ng·h/mL
Cmax [19]: 196 ng/mL
half-life [20]: 1.2 h
bioavailability [21]: 37%
AUC(0-inf) [22]: 1780 ng·h/mL
Cmax [23]: 453 ng/mL
half-life [24]: 1.7 h
bioavailability [25]: 88%
AUC(0-inf) [26]: 8500 ng·h/mL
Cmax [27]: 1290 ng/mL
bioavailability [28]: 94%
AUC(0-inf) [29]: 18300 ng·h/mL
Cmax [30]: 2220 ng/mL
bioavailability [31]: 45%
AUC(0-inf) [32]: 17500 ng·h/mL
Cmax [33]: 3060 ng/mL
half-life [34]: 4.7 h
bioavailability [35]: 73%
AUC(0-inf) [36]: 684 ng·h/mL
Cmax [37]: 136 ng/mL
half-life [38]: 3.3 h
solubility [39]: 52 µM (≈ 23.2 µg/mL)

ΔTm [2]: 5.89 °C
ΔTm [3]: 3.88 °C
ΔTm [4]: 3.98 °C
ΔTm [40]: 4.13 °C
SMILES: NC(=O)c1cnc(N2CCC[C@H](N)C2)nc1Nc1cc(C(F)(F)F)cc(C(F)(F)F)c1
ΔTm [1]: 6.07 °C
